Among the data in patent publication US5017565A, “Use of sulfated polysaccharides to inhibit pancreatic cholesterol esterase” (priority 1989, dated 1991) are IC50 values, retold here.

In the assay the target is human 100 kDa cholesterol esterase. Put plainly: Inhibition of triolein hydrolysis by cholesterol esterase. Format: biochemical. The settings on record: table 3; triolein used instead of cholesterol oleate. How it is done:
Alginic acid from Macrocystis pyrifera (kelp) was dissolved in water at a concentration of 1 mg/ml. This stock solution was used to prepare various polysaccharide concentrations down to 10^-5 mg/ml. Human pancreatic cholesterol esterase was purified as described by Bosner et al., Proc Nat'l. Acad. Sci., 85, 7438 (1988). To measure cholesterol esterase inhibition by alginic acid, 50 μl of cholesterol esterase (10 μg/ml). 75 μl of phosphatidylcholine vesicles containing cholesteryl ^14 C-oleate (1 mM 2,000 CPM/nmole). 25 μl of 100 mM taurocholate, 120 μl of 150 mM Tris. pH 7.5 and 30 μl of test alginic acid solution were incubated at 37° C. for fifteen minutes. The assay was quenched by placing the reaction vessels in a 4° C. ice bath and by adding 0.6 ml of 0.3 N NaOH and 3 ml of benzene/chloroform/methanol (1 0/1.2/0 5). The quenched reactions were vortexed for 30 seconds, centrifuged at 3,000 g for 15 minutes and 1 ml of the upper aqueous phase was added to 7 ml of Aquasol-2 (DuPont) with 0.025 ml of 6 N HCl. These mixtures were vortexed for one minute and counted for ^14 C-oleate The counts were compared to a sample which contained cholesterol esterase but no alginic acid to determine the percentage of inhibition. […]

Dextran Sulfate had an IC50 of 0.08 nM.
